Source: US20180214449A1, “CANCER THERAPY USING JAK INHIBITOR IN COMBINATION WITH MAPK INHIBITORS” (UBRX, INC., priority 2015, published 2018)

Tested on: B-Raf inhibitor resistant cells A375 or Lu1205R
Assay: Growth in soft agar of B-Raf inhibitor resistant cells
Assay type: cell-based, human
Conditions: two weeks in soft agar
Protocol: Melanoma cells A375 and Lu1205 were cultured in Dulbecco's modified Eagle's medium (DMEM) supplemented with 10% fetal bovine serum (FBS), and penicillin-streptomycin. The melanoma UACC cell lines (UACC91, UACC502, UACC612, UACC647, and UACC1113) were maintained in Rosewell Park Memorial Institute Medium (RPMI1640) supplemented with 10% FBS and penicillin-streptomycin.

Compound: CC(C)(C)c1nc2c3cc[nH]c(=O)c3c3cc(F)ccc3c2[nH]1 [Pyridone 6]
- growth in soft agar: did not inhibit growth
